## Cyclic peptide permeability, from CycPeptMPDB

Data: CycPeptMPDB; original report Townsend et al. 2020, doi:10.26434/chemrxiv.13335941.v1.

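Lipid, pH, incubation time, direction and concentration are not recorded in the data file. Other peptides of the study may be missing here. Entries at the database's floor value (log10 P of -10) are not listed.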

PAMPA is the parallel artificial membrane permeability assay, which has no cells and reads passive diffusion. Permeability is in 10^-6 cm/s, converted from the database's log10 values; higher is more permeable.

For CC(C)C[C@@H]1NC(=O)C[C@H](Cc2ccccc2)NC(=O)[C@H]2CCCN2C(=O)[C@H](Cc2ccccc2)NC(=O)[C@@H](CC(C)C)NC(=O)[C@@H]2CCCN2C(=O)C[C@H](Cc2ccccc2)NC1=O the data give PAMPA 1.3 × 10^-6 cm/s. CC(C)C[C@@H]1NC(=O)[C@@H]2CCCN2C(=O)[C@H](CC(C)C)NC(=O)[C@@H](CC(C)C)NC(=O)C[C@H](Cc2ccccc2)NC(=O)[C@H](Cc2ccccc2)NC1=O has PAMPA 1.7 × 10^-6 cm/s. CC(C)C[C@@H]1C(=O)N2CCC[C@H]2C(=O)N[C@H](CC(C)C)C(=O)N[C@@H](Cc2ccccc2)C(=O)N(C)[C@H](C)C(=O)N(C)[C@@H](CC(C)C)C(=O)N1C has PAMPA 17 × 10^-6 cm/s. The entry for CCCN1CC(=O)N[C@@H](CC(C)C)C(=O)N[C@H](CC(C)C)C(=O)N2CCC[C@@H]2C(=O)N[C@@H](CC(C)C)C(=O)N[C@@H](Cc2ccccc2)C(=O)N2CCC[C@@H]2C1=O lists PAMPA 1.5 × 10^-6 cm/s. The entry for CC(C)C[C@@H]1NC(=O)[C@@H]2CCCN2C(=O)CN(Cc2ccccc2)C(=O)[C@@H](CC(C)C)NC(=O)C[C@H](Cc2ccccc2)NC(=O)[C@H](Cc2ccccc2)NC1=O lists PAMPA 2.8 × 10^-6 cm/s. CC(C)C[C@@H]1C(=O)N2CCC[C@H]2C(=O)N(Cc2ccccc2)CC(=O)N[C@@H](Cc2ccccc2)C(=O)N[C@@H](C)C(=O)N[C@H](CC(C)C)C(=O)N1C is reported with PAMPA 4.1 × 10^-6 cm/s.

CC(C)C[C@H]1NC(=O)[C@H]2CCCN2C(=O)C[C@H](Cc2ccccc2)NC(=O)[C@@H](CC(C)C)NC(=O)[C@@H](C)NC(=O)[C@H](Cc2ccccc2)NC1=O is reported with PAMPA 0.98 × 10^-6 cm/s. CC(C)C[C@H]1C(=O)N(Cc2ccccc2)CC(=O)N2CCC[C@H]2C(=O)N(C)[C@@H](CC(C)C)C(=O)N[C@@H](Cc2ccccc2)C(=O)N2CCC[C@@H]2C(=O)N[C@H](C)C(=O)N1C is reported with PAMPA 0.91 × 10^-6 cm/s. For CC(C)C[C@@H]1NC(=O)[C@@H](CC(C)C)N(C)C(=O)[C@@H](C)N(C)C(=O)[C@H](Cc2ccccc2)NC(=O)CN(Cc2ccccc2)C(=O)[C@H]2CCCN2C1=O the data give PAMPA 2.8 × 10^-6 cm/s. CC(C)C[C@@H]1NC(=O)[C@H](CC(C)C)N(C)C(=O)[C@@H](C)NC(=O)[C@@H]2CCCN2C(=O)[C@H](Cc2ccccc2)NC(=O)[C@@H](CC(C)C)N(C)C(=O)[C@@H]2CCCN2C1=O is reported with PAMPA 1.5 × 10^-6 cm/s. The entry for CC(C)C[C@@H]1NC(=O)[C@@H]2CCCN2C(=O)[C@@H](CC(C)C)NC(=O)[C@@H](CC(C)C)NC(=O)[C@@H](C)NC(=O)[C@H](Cc2ccccc2)NC1=O lists PAMPA 3.7 × 10^-6 cm/s. CC(C)C[C@@H]1NC(=O)C[C@H](Cc2ccccc2)NC(=O)[C@H](Cc2ccccc2)NC(=O)[C@H](CC(C)C)N(C)C(=O)[C@H]2CCCN2C(=O)[C@H](CC(C)C)N(C)C1=O is reported with PAMPA 8.1 × 10^-6 cm/s.

Listed for CCCN1CC(=O)N[C@H](CC(C)C)C(=O)N(C)[C@@H](CC(C)C)C(=O)N2CCC[C@@H]2C(=O)N[C@@H](CC(C)C)C(=O)N[C@@H](Cc2ccccc2)C1=O: PAMPA 5.1 × 10^-6 cm/s. The entry for CC(C)C[C@@H]1NC(=O)[C@@H](CC(C)C)N(C)C(=O)[C@H](C)N(C)C(=O)[C@@H]2CCCN2C(=O)[C@H](Cc2ccccc2)NC(=O)CN(Cc2ccccc2)C(=O)[C@H]2CCCN2C1=O lists PAMPA 2 × 10^-6 cm/s. CC(C)C[C@@H]1C(=O)N(C)[C@@H](CC(C)C)C(=O)N2CCC[C@@H]2C(=O)N(C)[C@@H](CC(C)C)C(=O)N[C@@H](Cc2ccccc2)C(=O)N2CCC[C@@H]2C(=O)N[C@@H](C)C(=O)N1C is reported with PAMPA 12 × 10^-6 cm/s. For CC(C)C[C@@H]1NC(=O)[C@H](CC(C)C)N(C)C(=O)[C@H](C)NC(=O)[C@H](Cc2ccccc2)NC(=O)[C@@H](CC(C)C)NC(=O)[C@@H]2CCCN2C1=O the data give PAMPA 0.76 × 10^-6 cm/s.

Repeated from above, the 2 entries with the highest PAMPA:

{"smiles": "CC(C)C[C@@H]1C(=O)N2CCC[C@H]2C(=O)N[C@H](CC(C)C)C(=O)N[C@@H](Cc2ccccc2)C(=O)N(C)[C@H](C)C(=O)N(C)[C@@H](CC(C)C)C(=O)N1C", "PAMPA (10^-6 cm/s)": "17"}
{"smiles": "CC(C)C[C@@H]1C(=O)N(C)[C@@H](CC(C)C)C(=O)N2CCC[C@@H]2C(=O)N(C)[C@@H](CC(C)C)C(=O)N[C@@H](Cc2ccccc2)C(=O)N2CCC[C@@H]2C(=O)N[C@@H](C)C(=O)N1C", "PAMPA (10^-6 cm/s)": "12"}